Values of other authors, collected in patent publication US20190298669A1 (priority 2018, published 2019).

Test system: tumor growth
Conditions: two weeks oral dosing, daily dose 200 mg/kg; cited from earlier work

SMILES: O=C(NOCC1CC1)c1ccc(F)c(F)c1Nc1ccc(I)cc1Cl
- toxicity to mice: not toxic
